Assay [1] addresses interaction between CD36 and HCV E1 (Homo sapiens, UniProt P16671). To be noted: 20 μM SSO, lysates of HCV-infected Huh7.5 cells.
The target of a further assay is T1, CD36 (Homo sapiens, UniProt P16671).
T1 construct: made in house; host or cells: 293T/17 cells
The assay is described as follows: BIAcore surface plasmon resonance binding to CD36-HA. The note with it: immobilised CD36-HA; SSO 50, 100, 200, 500 μM. (In general: Surface plasmon resonance follows binding to a sensor surface in real time, without labels.)

Chains of the proteins cited; added tags and fusions are not shown. Residues count along the entry.
UniProt P16671, 2-472 limits assumed: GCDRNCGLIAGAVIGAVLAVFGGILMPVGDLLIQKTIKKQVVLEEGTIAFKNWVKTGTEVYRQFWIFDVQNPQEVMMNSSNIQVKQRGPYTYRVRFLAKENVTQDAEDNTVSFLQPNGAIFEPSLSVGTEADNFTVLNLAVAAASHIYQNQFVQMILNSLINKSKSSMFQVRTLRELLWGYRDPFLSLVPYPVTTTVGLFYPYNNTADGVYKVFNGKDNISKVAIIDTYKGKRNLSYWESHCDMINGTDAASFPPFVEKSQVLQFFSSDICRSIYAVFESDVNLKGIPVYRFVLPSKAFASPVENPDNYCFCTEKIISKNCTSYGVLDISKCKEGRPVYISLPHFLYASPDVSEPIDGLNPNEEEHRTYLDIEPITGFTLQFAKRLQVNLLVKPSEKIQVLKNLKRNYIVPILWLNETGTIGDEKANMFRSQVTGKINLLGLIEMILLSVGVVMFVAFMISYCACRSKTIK

The subject of assay [2] is HCV. Briefly: Time-of-addition assay. The class given is cell-based, hepatitis C virus. To be noted: 10 μM SSO, Huh7.5, HCV 300 IU/cell. As to the method:
Huh7.5 cells were infected with HCV (300 IU/cell) and incubated at 4 °C for 2 hrs, the cells were then washed with cold PBS and shifted to 37 °C (set as 0 hr time point) to initiate synchronous infection. At −2, −1, 0, 1, 2, 3, 4 hr, 10 μM SSO, or 10 nM bafilomycin A1, or solvent control was added, and the cells were incubated for 2 hrs prior to removal (the exception is t = −2 hr and −1 hr where compound were added back after removal of the virus and incubated for additional 2 hrs prior to removal). Intracellular HCV RNA was detected after 72 hrs incubation. Inhibitory ratio was calculated as % relative to infectious control (0%). Fitted lines represent sigmoidal time-dependent curves.

Assay [3] has as its system HCV. The assay is described as follows: Anti-HCV activity in HCV-infected Huh7.5 cells (intracellular HCV RNA, qRT-PCR). Format: cell-based, hepatitis C virus. The note with it: cytotoxicity by MTT assay vs anti-HCV EC50, 72 hrs. (In general: Quantitative PCR measures a nucleic acid by following its amplification.)

Here are results for 1 compound from PMC4761891, “CD36 is a co-receptor for hepatitis C virus E1 protein attachment” (Scientific Reports, 2016).

For `CCCCCCCC/C=C\CCCCCCCC(=O)ON1C(=O)CC(S(=O)(=O)O)C1=O` (stereo not shown) [SSO, sulfo-N-succinimidyl oleate], the “effect on the interaction between CD36 and HCV E1 (Co-IP)” value in assay [1] is “could directly disrupt the interaction between CD36 and HCV E1”. On CD36, the “direct binding to CD36 (BIAcore)” value was “direct binding between CD36 and SSO was detected”. The “activity when added after the temperature shift” value in the assay on HCV [2] is recorded as “almost completely lost its activity”. The “selective index (SI)” value in the assay on HCV [3] is “above 326”.
